Structures are written as SMILES.

Sequences of proteins named here, by UniProt entry; tags and fusion partners are left off.
UniProt P10980, whole entry: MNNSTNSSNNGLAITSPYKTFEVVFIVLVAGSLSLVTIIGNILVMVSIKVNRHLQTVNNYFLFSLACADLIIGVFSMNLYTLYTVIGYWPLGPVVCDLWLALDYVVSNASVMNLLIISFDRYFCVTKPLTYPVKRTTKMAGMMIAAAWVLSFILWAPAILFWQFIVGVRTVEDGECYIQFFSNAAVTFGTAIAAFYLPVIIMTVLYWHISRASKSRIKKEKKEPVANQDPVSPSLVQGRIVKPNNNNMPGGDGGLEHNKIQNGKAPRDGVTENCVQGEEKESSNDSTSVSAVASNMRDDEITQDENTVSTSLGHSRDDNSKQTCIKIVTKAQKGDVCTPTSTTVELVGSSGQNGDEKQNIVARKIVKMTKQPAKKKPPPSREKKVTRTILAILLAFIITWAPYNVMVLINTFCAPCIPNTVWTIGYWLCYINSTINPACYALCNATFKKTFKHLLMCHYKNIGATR

The subject of assay [1] is arecoline-induced increase in blood pressure. The assay can be described thus: Arecoline test: CNS-penetration, in vivo (rat), reduction in the arecoline-induced increase in blood pressure. As to conditions: i.v. As for the experimental part: Cerebroavailable antimuscarinics block this central effect. […] The trachea is incubated, the animals are respirated with an air/oxygen mixture (80 breaths per minute). The blood pressure is recorded after canulation of the carotid artery by means of a pressure recorder (Bell and Howell Type 4-327-I). The test substances are administered through the jugular vein ([…]). […] The arecoline is administered (in doses of 0.3 mg/kg) at 15 minute intervals. After 2 comparison values, the test substance is injected in increasing doses 5 minutes before the next administration of arecoline. The results obtained were compared with the average starting values and determined as the percentage inhibition.

Assay [2] addresses T1, M2 (Heart) muscarinic receptors (Rattus norvegicus, UniProt P10980).
T1 construct: The cerebral cortex, heart and salivary glands were removed, washed and homogenised; from tissue; host or cells: rat heart homogenate (Wistar, Chbb: THOM)
The assay can be described thus: Receptor binding test, [3H]NMS, heart (M2). Details: species or system Male Wistar rats. To be noted: ratio of Ki M1 (cortex) to Ki M2 (heart).

On to `CCN(CC)CC1CCCCN1CC(=O)N1c2cc(Cl)ccc2C(=O)Nc2cccnc21` (racemic) [Substance K, (±)-9-chloro-11-[[2-[(diethylamino)methyl]-1-piperidinyl]-acetyl]-5,11-dihydro-6H-pyrido[2,3-b]-[1,4]benzodiazepin-6-one], for which, in assay [1], the “effect on arecoline-mediated central effects / increase in blood pressure (in words)” value is recorded as “had no effect on the increase in blood pressure caused by arecoline”. `CCN(CC)CC1CCCCN1CC(=O)N1c2ccccc2C(=O)Nc2cccnc21` (stereo not shown) [Substance H, 11-[[2-[(diethylamino)methyl]-1-piperidinyl]acetyl]-5,11-dihydro-6H-pyrido[2,3-b][1,4]benzodiazepin-6-one]: the “Selectivity ratio (M1 /M2)” value in assay [2] turned out to be 6. In assay [1], the “effect on arecoline-mediated central effects / increase in blood pressure (in words)” value is reported as “had no effect on the increase in blood pressure caused by arecoline”. Regarding `O=C1Nc2cccnc2N(C(=O)CCCCCN2CCCCC2)c2ccccc21` [Substance O, 5,11-dihydro-11-[1-oxo-6-(1-piperidinyl)-1-hexyl]-6H-pyrido[2,3-b][1,4]benzodiazepin-10-one], in assay [1], the “effect on arecoline-mediated central effects / increase in blood pressure (in words)” value was “had no effect on the increase in blood pressure caused by arecoline”.

The record behind these values is patent US5641772A, “Condensed diazepinones, processes for preparing them and agents containing these compounds for treating diseases of the central nervous system and for promoting cerebral blood circulation” (Dr. Karl Thomae GmbH, priority 1991, dated 1997).
